This is an account of results in US20210115104A1, “AMYLIN ANALOGUES” (Zealand Pharma A/S, priority 2015, published 2021).

The target in experiment [1] is T1, human amylin receptor 3 (hAMYR3), hCTR2 co-expressed with hRAMP3 (Homo sapiens, UniProt O60896+P30988).
T1 construct: expressed in transfected cells
T1 sequence (P30988 25-474): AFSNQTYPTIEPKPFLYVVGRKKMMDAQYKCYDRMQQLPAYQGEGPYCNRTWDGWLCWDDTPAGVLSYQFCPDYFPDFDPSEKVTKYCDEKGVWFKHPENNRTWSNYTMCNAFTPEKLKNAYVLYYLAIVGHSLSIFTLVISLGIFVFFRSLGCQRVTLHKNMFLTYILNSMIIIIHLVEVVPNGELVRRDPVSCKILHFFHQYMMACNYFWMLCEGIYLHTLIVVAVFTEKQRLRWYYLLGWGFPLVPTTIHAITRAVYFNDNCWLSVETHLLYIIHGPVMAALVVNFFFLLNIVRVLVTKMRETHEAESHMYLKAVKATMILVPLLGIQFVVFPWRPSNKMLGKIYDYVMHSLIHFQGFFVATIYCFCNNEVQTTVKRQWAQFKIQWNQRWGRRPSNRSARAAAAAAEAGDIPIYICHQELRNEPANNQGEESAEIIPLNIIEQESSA
T1 sequence (O60896 24-148 partner): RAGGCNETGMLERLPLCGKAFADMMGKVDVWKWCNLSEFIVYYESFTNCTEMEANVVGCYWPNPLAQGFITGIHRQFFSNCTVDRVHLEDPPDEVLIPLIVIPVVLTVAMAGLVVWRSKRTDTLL
As to the kind of experiment: hAMYR3 cAMP assay (AlphaScreen) in COS7 cells. Format: cell-based. The conditions noted are these: cAMP induction, COS7 cells expressing hAMYR3; Table 1. The text has this:
(§1) The cell line COS7, originating from African Green Monkey kidney fibroblast cells, was used for establishment of the stable cell lines described below. The COS7 cellular background was used due to it being RAMP naïve, and as such it provides the best available system for testing of the monomeric hCTR and different heterodimeric amylin receptor subtypes functionally generated by introduction of the individual RAMPs.
(§2) A cell line expressing the human amylin receptor 3 (hAMYR3) was generated in the COS7 cellular background as stable clones. In brief, hCTR2 (GI:4502547) and hRAMP3 (GI:118572586) were amplified by PCR using primers encoding terminal restriction sites for subcloning. The 5′-end primers additionally encoded a near Kozak consensus sequence to ensure efficient translation. The fidelity of the DNA encoding the receptor was confirmed by DNA sequencing. The PCR products encoding the receptor were subcloned into a proprietary tri-cistronic mammalian expression vector with RAMP3, hCTR2 and neomycin (G418) resistance marker. The mammalian expression vector encoding the receptor was transfected into COS7 cells by a standard liposome transfection method. […]
(§3) In vitro activity of test peptides at the hCTR2 and hAMYR3 receptors was assessed by measuring the induction of cAMP following stimulation of the receptor using the AlphaScreen® cAMP Assay kit from Perkin-Elmer. […]
For orientation: Changes in cAMP serve as a functional read-out for many G protein-coupled receptors.

In experiment [2] the target is T2, human calcitonin receptor (hCTR2) (Homo sapiens, UniProt P30988).
T2 construct: expressed in transfected cells
T2 sequence (P30988 25-474): T1 sequence (P30988 25-474)
As to the kind of experiment: hCTR2 cAMP assay (AlphaScreen) in COS7 cells. The class given is cell-based. The conditions noted are these: cAMP induction, COS7 cells expressing hCTR2; Table 1.
From the text: as §1
as §2, with “calcitonin” for “amylin”, “(hCTR2)” for “3 (hAMYR3)”, “(GI: 4502547) was” for “(GI:4502547) and hRAMP3 (GI:118572586) were”, “a” for “a proprietary tri-cistronic”, “containing a” for “with RAMP3, hCTR2 and”
as §3

As usually defined, the EC50 is the concentration needed to bring the measured effect to its halfway point. For `CC[C@H](C)[C@H](NC(=O)[C@@H]1CCCN1C(=O)CNC(=O)[C@H](Cc1ccccc1)NC(=O)[C@H](CC(N)=O)NC(=O)[C@H](CC(N)=O)NC(=O)[C@H](CO)NC(=O)[C@H](CO)NC(=O)[C@H](Cc1c[nH]cn1)NC(=O)[C@@H](NC(=O)[C@H](CC(C)C)NC(=O)[C@H](Cc1ccccc1)NC(=O)[C@H](CC(N)=O)NC(=O)[C@H](C)NC(=O)[C@H](CC(C)C)NC(=O)[C@H](CCCNC(=N)N)NC(=O)[C@H](CCC(N)=O)NC(=O)[C@@H](NC(=O)[C@H](C)NC(=O)[C@@H]1CSSC[C@H](NC(=O)[C@@H](N)CCCCN)C(=O)N[C@@H](CC(N)=O)C(=O)N[C@@H]([C@@H](C)O)C(=O)N[C@@H](C)C(=O)N[C@@H]([C@@H](C)O)C(=O)N1)[C@@H](C)O)C(C)C)C(=O)N[C@@H](CC(C)C)C(=O)N1CCC[C@H]1C(=O)N1CCC[C@H]1C(=O)N[C@H](C(=O)N[C@@H](CC(N)=O)C(=O)N[C@H](C(=O)NCC(=O)N[C@@H](CO)C(=O)N[C@@H](CC(N)=O)C(=O)N[C@H](C(=O)N[C@@H](Cc1ccc(O)cc1)C(N)=O)[C@@H](C)O)C(C)C)[C@@H](C)O` [Pramlintide, reference compound], the EC50 in experiment [1] came out at 0.23 nM; in experiment [2], 1.4 nM.
